Assay results from patent US5002943A, “Condensed diazepinones, processes for preparing them and pharmaceutical compositions containing these compounds” (priority 1988, dated 1991).

Target: muscarinic receptors (cerebral cortex)
Assay: Muscarinic receptor binding, cerebral cortex (displacement of 3H-N-methylscopolamine)
Parameters: species or system male Sprague-Dawley rats
Details: cerebral cortex homogenate; 0.3 nanomolar 3H-NMS; 30 C; 45 minutes; pH 7.4; read-out: Receptor Binding Tests IC50, Cortex

Q: With `CCN(CC)CC1CCCCN1CC(=O)N1c2ccccc2C(=O)Nc2cccnc21` (stereo not shown) [Substance D, 11-[[2-[(diethylamino)methyl]-1-piperidinyl]acetyl]-5,11-dihydro-6H-pyrido[2,3-b][1,4]benzodiazepin-6-one, reference compound] as the molecule, how does the IC50 read?
A: The IC50 was 1200 nM.
